Measured values taken from US5955357A, “In-vitro-derived human neutrophil precursor cells” (Nexell Therapeutics Inc., priority 1994, dated 1999).

Test system: CD15+CD11b- neutrophil precursors
Assay: single cell proliferation assay of sorted neutrophil precursors in hematopoietic growth factors
Format: cell-based, human
Settings: Table V, individual growth factors, after 10 days in culture
Description: Apheresis samples were collected after peripheral blood counts reached 1000/ul from patients mobilized with G-CSF (10 ug/kg/day) following cyclophosphamide/VP16 chemotherapy. Apheresis was performed using the CS-3000® blood cell separator (Fenwal Division, Baxter Healthcare, Deerfield, Ill.). Bone marrow was collected from normal volunteers.
The assays were performed by sorting single cells based upon expression of CD15 and CD11b by flow cytometry into multiwell plates containing 10 ul of culture media with various growth factor combinations. […] The same studies were performed on fresh bone marrow for comparison. Plates containing the sorted cells were incubated at 37° C. and the number of cells in each well were counted on days 1, 3 and 10. For further characterization of antigenic expression, cells at varying timepoints of culture were stained with the following antigenic combinations: FITC-CD15/PE-CD11b, FITC-CD71/PE-CD45RA,and FITC-CD67/PE-CD34.
To assess the absolute requirement of growth factors on the proliferation of neutrophil precursors, single cells were plated in the presence or absence of all four growth factors described above. The single cell cultures were incubated for an additional 10 days and then each well was scored for the number of total cells. The wells were categorized according to the number of cells per well.
To determine which single growth factor or combination of growth factors would support proliferation of neutrophil precursors, various combinations of the above growth factors were tested in the single cell proliferation assay.

B1: IL-3: hematopoietic growth factor, interleukin-3 (protein, UniProt P08700 20-152, looked up)
Interleukin-3: APMTQTTPLKTSWVNCSNMIDEIITHLKQPPLPLLDFNNLNGEDQDILMENNLRRPNLEAFNRAVKSLQNASAIESILKNLLPCLPLATAAPTRHPIHIKDGDWNEFRRKLTFYLKTLENAQAQQTTLSLAIF
Percent of Total Cells Evaluated, 0 Cells/Wells: 20% | Percent of Total Cells Evaluated, 1-4 Cells/Well: 38% | Percent of Total Cells Evaluated, 5-8 Cells/Well: 29% | Percent of Total Cells Evaluated, 9-16 Cells/Well: 10% | Percent of Total Cells Evaluated, 17-32 Cells/Well: 2% | Percent of Total Cells Evaluated, >32 Cells/Well: 1%
